Earlier results as cited in PMC8438204, “Unraveling the Thermodynamics of Ultra-tight Binding of Intrinsically Disordered Proteins” (Frontiers in Molecular Biosciences, 2021).

Biological target: CcdB (Escherichia coli) (UniProt P62554)

CcdA (from UniProt P62552)
Kd: 4 pM
